Results taken from BindingDB's records for doi:10.1007/pl00005133 (Eli Lilly, 1998).

Amino acid sequences for entries named in this document (tags omitted).
UniProt P41595, whole entry: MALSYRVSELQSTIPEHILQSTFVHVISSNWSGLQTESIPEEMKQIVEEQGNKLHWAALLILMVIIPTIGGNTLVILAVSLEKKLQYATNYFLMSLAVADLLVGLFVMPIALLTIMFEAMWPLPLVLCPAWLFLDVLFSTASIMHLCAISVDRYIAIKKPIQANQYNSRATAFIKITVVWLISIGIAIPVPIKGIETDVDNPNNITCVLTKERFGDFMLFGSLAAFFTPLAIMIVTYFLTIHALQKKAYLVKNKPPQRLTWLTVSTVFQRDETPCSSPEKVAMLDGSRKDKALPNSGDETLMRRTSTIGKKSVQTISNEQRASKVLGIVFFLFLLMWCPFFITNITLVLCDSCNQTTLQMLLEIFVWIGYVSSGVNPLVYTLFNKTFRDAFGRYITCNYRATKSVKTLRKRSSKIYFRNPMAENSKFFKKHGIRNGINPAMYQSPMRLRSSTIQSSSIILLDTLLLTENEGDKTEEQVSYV

Biological target: 5-hydroxytryptamine receptor 2B (Homo sapiens, UniProt P41595)

SMILES | Ki [nM]
CSc1ccc2c(c1)C(N1CCN(C)CC1)Cc1ccccc1S2 (configuration not stated) [methanesulfonic acid;1-methyl-4-(3-methylsulfanyl-5,6-dihydrobenzo[b][1]benzothiepin-5-yl)piperazine] | 0.58
Clc1cccc(N2CCNCC2)c1 [mCPP] | 10.5
